Key:
[1] = biological target: RAC-alpha serine/threonine-protein kinase (Homo sapiens, UniProt P31749); experiment: Inhibition of Akt after 1 hr
[2] = biological target: Fibroblast growth factor receptor 4 (Homo sapiens, UniProt P22455); experiment: Inhibition of FGFR4 after 1 hr
[3] = biological target: Protein kinase C theta type (Homo sapiens, UniProt Q04759); experiment: Inhibition of PKCtheta after 1 hr

Protein sequences, listed by entry. Tags and fused reporters are not part of them. Lines headed by an entry give the natural chain unless they say otherwise; changes in a name come on top.
UniProt P31749: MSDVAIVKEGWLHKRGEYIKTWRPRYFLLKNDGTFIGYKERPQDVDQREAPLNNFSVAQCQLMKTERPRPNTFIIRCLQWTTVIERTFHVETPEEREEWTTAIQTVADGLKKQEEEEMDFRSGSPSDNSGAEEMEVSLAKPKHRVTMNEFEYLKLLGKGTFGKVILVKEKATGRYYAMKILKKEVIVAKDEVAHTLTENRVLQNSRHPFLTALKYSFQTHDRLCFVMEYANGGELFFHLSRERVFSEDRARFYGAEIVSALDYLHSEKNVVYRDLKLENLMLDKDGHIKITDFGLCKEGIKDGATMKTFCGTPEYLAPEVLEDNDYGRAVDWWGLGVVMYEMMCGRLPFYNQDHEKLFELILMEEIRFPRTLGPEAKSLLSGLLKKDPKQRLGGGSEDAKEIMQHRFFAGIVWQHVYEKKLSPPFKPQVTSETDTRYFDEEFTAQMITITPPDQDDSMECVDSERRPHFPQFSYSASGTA
UniProt P22455, whole entry: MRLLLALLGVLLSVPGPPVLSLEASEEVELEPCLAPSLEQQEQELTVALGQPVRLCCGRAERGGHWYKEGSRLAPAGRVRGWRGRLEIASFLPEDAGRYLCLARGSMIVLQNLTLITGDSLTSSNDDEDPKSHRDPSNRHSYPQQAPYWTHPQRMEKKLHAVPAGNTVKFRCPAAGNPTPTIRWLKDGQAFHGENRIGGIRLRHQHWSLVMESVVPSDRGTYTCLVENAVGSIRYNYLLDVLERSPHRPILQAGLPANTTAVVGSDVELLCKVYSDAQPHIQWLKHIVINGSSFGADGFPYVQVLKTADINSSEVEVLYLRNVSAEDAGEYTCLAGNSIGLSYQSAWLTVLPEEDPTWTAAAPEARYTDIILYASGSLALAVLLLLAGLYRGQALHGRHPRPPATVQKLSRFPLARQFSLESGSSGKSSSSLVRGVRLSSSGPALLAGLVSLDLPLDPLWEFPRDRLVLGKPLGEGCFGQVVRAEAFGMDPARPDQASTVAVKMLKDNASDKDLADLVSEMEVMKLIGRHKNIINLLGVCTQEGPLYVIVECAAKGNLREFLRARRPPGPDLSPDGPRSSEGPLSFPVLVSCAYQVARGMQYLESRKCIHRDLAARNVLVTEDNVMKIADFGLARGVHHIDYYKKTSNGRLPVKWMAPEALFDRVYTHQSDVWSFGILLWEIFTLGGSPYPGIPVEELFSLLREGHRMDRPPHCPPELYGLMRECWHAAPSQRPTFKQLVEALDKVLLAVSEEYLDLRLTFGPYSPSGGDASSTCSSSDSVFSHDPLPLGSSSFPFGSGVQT
UniProt Q04759: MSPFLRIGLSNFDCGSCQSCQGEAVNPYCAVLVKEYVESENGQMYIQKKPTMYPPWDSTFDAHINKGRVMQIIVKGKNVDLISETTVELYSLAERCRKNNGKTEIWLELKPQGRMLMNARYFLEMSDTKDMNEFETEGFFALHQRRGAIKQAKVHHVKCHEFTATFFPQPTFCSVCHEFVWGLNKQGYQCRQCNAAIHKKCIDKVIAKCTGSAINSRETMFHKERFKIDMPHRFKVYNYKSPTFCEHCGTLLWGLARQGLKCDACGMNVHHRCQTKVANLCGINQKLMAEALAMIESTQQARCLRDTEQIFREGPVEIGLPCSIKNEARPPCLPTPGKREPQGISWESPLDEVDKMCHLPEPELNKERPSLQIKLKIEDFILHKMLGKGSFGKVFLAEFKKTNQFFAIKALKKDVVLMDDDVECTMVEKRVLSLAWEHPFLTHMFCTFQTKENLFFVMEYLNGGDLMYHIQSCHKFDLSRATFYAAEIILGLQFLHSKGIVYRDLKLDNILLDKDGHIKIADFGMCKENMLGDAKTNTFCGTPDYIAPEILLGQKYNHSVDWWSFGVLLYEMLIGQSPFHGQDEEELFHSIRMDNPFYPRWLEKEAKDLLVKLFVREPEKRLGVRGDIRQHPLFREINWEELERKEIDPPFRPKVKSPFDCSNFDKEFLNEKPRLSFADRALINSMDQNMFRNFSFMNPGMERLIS

IC50 [1]: 50 µM
IC50 [2]: 50 µM
IC50 [3]: 50 µM
Structure (SMILES): O=C(Nc1cccc(-c2cn3ccnc3c(NCc3ccncc3)n2)c1)Nc1cccc(C(F)(F)F)c1
